Results on one compound are retold here after patent publication US20100008912A1, “COMBINATION DRUG” (TAKEDA PHARMACEUTICAL COMPANY LIMITED, priority 2006, published 2010).

For this experiment, the system named is N87 (gastric cancer). Description: Cell growth determination test of combined use, Combination Index, N87. The format is cell-based, human. Conditions: combined use with compound A. The method, then: The cell density of the cell suspension was measured by cell counter Sysmex CDA500, and the cell density was adjusted to 4×10^4 cell/mL using the aforementioned medium, which was dispensed to each well of a 96 well multi-well culture plate (Nunc) by 0.15 mL and cultured overnight at 37° C., 5% CO2. […] After culturing at 37° C., 5% CO2 for 5 days, the cells of each well were fixed, stained and subjected to colorimetry. The effect of the combined use was determined by the method of Chou T C, Talalay P Adv.
The effect of combined use was determined by the method of Chou T C, Talalay P Adv.

Each structure is given as a SMILES string.

Turning to `CN(Cc1cnc2nc(N)nc(N)c2n1)c1ccc(C(=O)N[C@@H](CCC(=O)O)C(=O)O)cc1` [methotrexate], the “Combination Index at the time of inhibition of cell growth by 50%” value was found to be 1.44.
